Results on one molecule are retold here after ChEMBL document CHEMBL4715859, “Small Molecules Selectively Targeting Sigma-1 Receptor for the Treatment of Neurological Diseases” (J Med Chem, 2020).

Sequences of proteins named here, by UniProt entry; tags and fusion partners are left off.
UniProt Q9R0C9, whole entry: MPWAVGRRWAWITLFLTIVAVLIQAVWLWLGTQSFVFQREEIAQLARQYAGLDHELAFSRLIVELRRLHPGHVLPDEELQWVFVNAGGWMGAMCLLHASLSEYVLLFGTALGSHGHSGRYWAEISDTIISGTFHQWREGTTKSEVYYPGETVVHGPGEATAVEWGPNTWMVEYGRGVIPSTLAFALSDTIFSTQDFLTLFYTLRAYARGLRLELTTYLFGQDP

Experiment [1] has as its target Sigma non-opioid intracellular receptor 1 (Rattus norvegicus, UniProt Q9R0C9). The class given is cell membranes, Sprague-Dawley, Brain, Membrane.
Experiment [2] concerns the target T1, Sigma intracellular receptor 2 (Rattus norvegicus, UniProt Q5U3Y7).
T1 sequence (Q5U3Y7 whole entry): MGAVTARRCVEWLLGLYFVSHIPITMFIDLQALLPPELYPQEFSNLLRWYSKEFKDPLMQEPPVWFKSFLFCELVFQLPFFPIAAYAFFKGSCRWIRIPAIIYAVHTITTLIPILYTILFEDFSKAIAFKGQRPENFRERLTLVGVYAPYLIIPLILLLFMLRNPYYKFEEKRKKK
The class given is cell membranes, Sprague-Dawley, Brain, Membrane.

For orientation: Ki means the equilibrium dissociation constant of an inhibitor or competing ligand from its target. On to `CN(C)CCCC1(c2ccc(F)cc2)OCc2cc(C#N)ccc21` (configuration not stated) [CITALOPRAM], for which the values for the Ki in experiment [1] and in experiment [2] were 292 nM and 5410 nM, respectively.
